Where two headings read alike, the source gives them in different places.
Tested on: EOC-20 cells

With “7-Bis (4-hydroxy-3-methoxyphenyl)-1,6-heptadiene-3,5-dione [Curcumin]” the LD50 (Table III, MTT viability, by extrapolation through sublethal concentrations) was 120 μm and the LD50 (Table V) was “Nontoxic”.

Reference: patent publication US20040014721A1, “Method for using tethered bis(polyhydroxyphenyls) and O-alkyl derivatives thereof in treating inflammatory conditions of the central nervous system” (Oklahoma Medical Research Foundation, priority 2002, published 2004)
